{"source": "patent US9963460B1", "about": "“Morphinan derivative” (dated 2018)", "key": {"mice": {"tested_on": "mice", "test": "Rotarod test (sedative effect)", "conditions": "1 to 30 μg/kg s.c., 120 minutes after administration, 8 rpm for 300 seconds, compared with nalfurafine, FIG. 1"}, "ICR male mice": {"tested_on": "ICR male mice", "test": "Acetic acid writhing test", "conditions": "s.c., 30 minutes before 0.6% acetic acid i.p."}}, "data": [{"compound": "CN(Cc1ccccc1)C(=O)C1=C[C@@]23CC[C@]1(O)[C@@H]1Oc4c(O)ccc5c4[C@@]12CCN(CC1CC1)[C@@H]3C5.Cl", "values": [{"measurement": "Sedative effect (total number of dropping times)", "setting": "mice", "value": "no sedative effect"}, {"measurement": "Writhing suppression effect ED50 value", "setting": "ICR male mice", "value": 1.67, "unit": "µg/kg"}]}]}
